Assay: Physical chemical characteristics: solubility in water and organic solvents

gentamycin trans-traumatate [Gentamycin Traumatate]
organic solvent solubility (in DMSO): > 10000 µg/mL
solubility in water: > 10000 µg/mL

hexadecyltrimethylammonium trans-traumatate [Hexadecyltrimethyl Ammonium Traumatate]
organic solvent solubility (in ethanol): > 20000 µg/mL
solubility in water: > 10000 µg/mL

From US5567716A, “Trans and cis traumatic acid salts having cicatrizant activity associated to bacteriostatic, antiviral, antibiotic or antifungal activity” (priority 1992, dated 1996)
